Here are results for one compound from patent publication US20240408054A1, “COMPOSITIONS AND METHODS FOR […] OF R(-)-MDA” (priority 2023, published 2024).

Structures are written as SMILES.

This data set is described as follows: Phase 1 clinical study: safety and tolerability. To be noted: highest dose (225 mg).

`CN[C@H](C)Cc1ccc2c(c1)OCO2` [R(−)-MDMA]: the Bruxism entry is on record as “observed in a single subject”.
